# In PubChem BioAssay AID861 (The Scripps Research Institute Molecular Screening Center, 2007):
# Protein sequences, listed by entry. Tags and fused reporters are not part of them.
# UniProt O00206, whole entry: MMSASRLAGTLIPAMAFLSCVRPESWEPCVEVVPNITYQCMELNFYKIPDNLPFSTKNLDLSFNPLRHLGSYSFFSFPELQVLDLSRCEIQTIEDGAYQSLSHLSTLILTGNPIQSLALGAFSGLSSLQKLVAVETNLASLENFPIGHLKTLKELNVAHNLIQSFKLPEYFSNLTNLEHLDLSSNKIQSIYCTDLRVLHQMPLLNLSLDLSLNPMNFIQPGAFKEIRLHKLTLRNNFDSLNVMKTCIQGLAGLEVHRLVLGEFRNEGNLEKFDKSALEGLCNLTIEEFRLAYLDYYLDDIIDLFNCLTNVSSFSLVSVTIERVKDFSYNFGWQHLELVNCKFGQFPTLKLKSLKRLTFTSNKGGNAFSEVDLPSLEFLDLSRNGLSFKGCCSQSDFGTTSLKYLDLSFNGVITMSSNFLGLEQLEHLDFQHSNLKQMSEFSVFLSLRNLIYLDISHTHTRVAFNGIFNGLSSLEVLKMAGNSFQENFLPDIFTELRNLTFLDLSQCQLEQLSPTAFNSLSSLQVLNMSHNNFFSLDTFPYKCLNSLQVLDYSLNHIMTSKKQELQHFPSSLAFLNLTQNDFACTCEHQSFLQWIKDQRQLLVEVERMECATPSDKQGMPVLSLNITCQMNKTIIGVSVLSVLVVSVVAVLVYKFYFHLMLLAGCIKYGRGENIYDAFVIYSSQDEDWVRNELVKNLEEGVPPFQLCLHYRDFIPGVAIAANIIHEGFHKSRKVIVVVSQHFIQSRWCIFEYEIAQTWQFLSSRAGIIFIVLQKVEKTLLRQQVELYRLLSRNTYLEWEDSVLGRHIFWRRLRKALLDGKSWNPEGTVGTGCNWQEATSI
# The entries are a selection whose mix differs from that of the whole data set. Activity calls are given as the source filed them. No stated cut-off is given here; in the data, active means inhibition above about 25%; inactive means the rest.
# Target: Toll-like receptor 4 (Homo sapiens) + Myeloid differentiation primary response protein MyD88 (Homo sapiens) (UniProt O00206+Q99836)
# Test: disruptors of TLR4 binding to MyD88 – cell-based, HeLa CL3-4, BLA complementation, FRET ratio, primary screen (AID 861);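 further: 0% = vehicle and 100% = reference inhibitor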
# Details: HeLa CL3-4 TLR4/MyD88 BLA complementation, at 8.4 µM, stronger effect = higher value
row,SMILES,inhibition
1,CCc1ccc(OP(C)(=O)O)cc1,inactive: -5.16%
